Here are results for two substances from patent US20130225839A1, “PREPARATION METHOD OF FOSAMPRENAVIR DERIVATIVES AND RELEVANT INTERMEDIATE THEREOF” (ZHEJIANG JIUHOU PHARMA SCIENCE & TECHNOLOGY CO., LTD., priority 2010, published 2013).

For data set [1] the following is noted: cited from earlier work.
Data set [2] is described as follows: solubility in water or ethanol.

For “[(3S)-oxolan-3-yl]N-(2S,3R)-4-[(4-aminophenyl)sulfonyl-(2-methylpropyl)amino]-1-phenyl-3-phosphonooxy-butan-2-yl]carbarnate calcium salt [Fosamprenavir calcium]”, the “solubility in water at 25° C.” value in data set [1] is 100 mg/mL.
Turning to “calcium (3S)-tetrahydrofuran-3-yl(1S,2R)-3-[(4-nitrophenyl)sulfonyl](isobutyl)amino-1-benzyl-2-(phosphonooxy)propyl-carbamate”, in data set [2] (ethanol), the solubility in ethanol entry was “extremely small solubility”. The solubility in water entry in data set [2] (water) is listed as “extremely small solubility”.
